For 1 compound, IC50 results are on record in PMC6272605, “Development and Validation of a Docking-Based Virtual Screening Platform for the Identification of New Lactate Dehydrogenase Inhibitors” (Molecules, 2015).

As a reminder, the IC50 is the concentration that inhibits the measured activity by half. A lower IC50 goes with higher potency.

In the test the target is T1, purified human lactate dehydrogenase isoform 5 (hLDH5) (Homo sapiens, UniProt P00338).
T1 construct: purchased Lee Biosolution, Inc., St. Louis, MO, USA
Briefly: hLDH5 inhibition assay (pyruvate→lactate, NADH fluorescence). Type of test: biochemical. The conditions noted are these: 200 μM pyruvate, 40 μM NADH, phosphate buffer pH 7.4, 15 min incubation. On the procedure: LDH assays: The LDH inhibition properties of the selected compounds were evaluated against purified human lactate dehydrogenase isoform 5 (Lee Biosolution, Inc., St. Louis, MO, USA). The “forward” direction (pyruvate→lactate) of the lactate dehydrogenase reaction was conducted, and the kinetic parameters were measured by fluorescence (emission wavelength at 460 nm, excitation wavelength at 340 nm) to monitor the amount of consumed NADH. Assays were carried out in wells containing 200 μL of a reagent solution dissolved in 100 mM phosphate buffer (pH = 7.4). For the IC50 calculations of the compounds, seven different concentrations (in duplicate for each concentration) of the isolated compounds were used to produce the concentration-response curve. All of the compounds were tested in the presence of 200 μM pyruvate and 40 μM NADH. Any background fluorescence likelihood of the tested samples, or NADH fluorescence quenching, was subtracted. In addition to the sample test wells, maximum and minimum controls were also included in each plate. After 15 min of incubation, the final measurements were carried out by using a Victor X3 Microplates Reader (PerkinElmer®). IC50 values were produced using GraphPad Prism software.

`NC(=O)C(=O)O` [oxamic acid] had a 50% inhibitory concentration (IC50) of 97.7 ± 11.2 µM.
